Experimental data: US8546147B2, “Imidazo[1,2-α]pyrazin-3(7H)-one derivatives bearing a new electron-rich structure” (Universita degli Studi di Siena, priority 2009, dated 2013)

Assays:
[1] = biological target: T1, RLuC (donor) and Green Fluorescent Protein GFP (acceptor) (Renilla reniformis, UniProt P27652); details: three different times, FIG. 8-10
T1 sequence (P27652 1-311): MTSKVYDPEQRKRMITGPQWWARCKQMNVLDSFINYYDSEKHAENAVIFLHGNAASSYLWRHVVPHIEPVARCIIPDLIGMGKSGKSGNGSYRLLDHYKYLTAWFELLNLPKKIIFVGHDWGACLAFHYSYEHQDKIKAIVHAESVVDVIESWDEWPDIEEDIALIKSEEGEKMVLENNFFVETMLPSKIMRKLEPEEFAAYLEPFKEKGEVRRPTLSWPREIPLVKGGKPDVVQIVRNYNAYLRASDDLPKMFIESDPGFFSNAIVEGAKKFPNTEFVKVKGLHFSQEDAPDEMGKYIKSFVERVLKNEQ

[2] = biological target: T2, Renilla Luciferase (RLuC) (Renilla reniformis, UniProt P27652)
T2 sequence (P27652 1-311): T1 sequence (P27652 1-311)

## O=c1c(Cc2ccccc2)nc2c(Cc3ccccc3)[nH]c(-c3ccccc3)cn1-2 [Compound 23b, 2,8-Dibenzyl-6-phenylimidazo-[1,2-a]pyrazin-3(7H)-one]
[1]
  emission over time in BRET experiment (in words): decrease over time

## O=c1c(Cc2ccccc2)nc2c(Sc3ccc(Cl)cc3)[nH]c(-c3ccccc3)cn1-2 [Compound 23n, 2-Benzyl-8-(4-chlorophenylthio)-6-phenylimidazo[1,2-a]pyrazin-3(7H)-one]
[2]
  Biolum. Imax: 470 nm
